Tested on: cultured human hepatocytes
Experiment: Cytotoxicity to cultured human hepatocytes (morphology, LDH release)
Conditions: 72 hours, first study 0.05 to 30 μM, all donors

In the case of `COC[C@H](NC(=O)c1ccn(S(C)(=O)=O)c1)C(=O)Nc1nc(-c2cccc(N3C[C@@H](C)O[C@@H](C)C3)n2)cs1` [compound of formula (I), N-((S)-1-((4-(6-(cis-2,6-dimethylmorpholino)pyridin-2-yl)thiazol-2-yl)amino)-3-methoxy-1-oxopropan-2-yl)-1-(methylsulfonyl)-1H-pyrrole-3-carboxamide], the “concentrations that appeared cytotoxic to cultured human hepatocytes (morphology changes)” value is reported as ≥ 0.5 μM.

From patent US20240189318A1, “THERAPEUTIC REGIMENS OF AN INHIBITOR OF THE ENZYMATIC ACTIVITY OF BRG1 AND BRM” (FOGHORN THERAPEUTICS INC., priority 2021, published 2024)
